PubChem BioAssay AID651635 (National Center for Advancing Translational Sciences (NCATS), 2012)
This is a selection; strong and weak results do not stand in their true shares. Records with an inconclusive call do not appear. The source made the active and inactive calls. Calls come from the whole dose curve; as a rule, active = well fitted cell-killing curve with a large enough effect; inconclusive = small, poorly fitted or top-dose-only effect, or effect the other way; inactive = no such curve, though single readings can be large or run the other way.

assay: Viability Counterscreen for Primary qHTS for Inhibitors of ATXN expression; conditions: S2 cells (HEK-293 line with an ATXN2-luciferase reporter) viability, CellTiter-Fluor protease fluorescence, 24 h; at 56.7 µM (top of the series); note: nearly all actives have a fitted effect of over 40% in size

Row | Compound | activity change, negative = cytotoxicity
1 | COc1ccccc1C(=O)NCC1(N2CCOCC2)CCCCC1 | inactive: -9.1%
2 | CCOc1ccc(C)cc1CN(CCCl)CCCl | inactive: -5.62%
3 | O=C(NCC1(N2CCOCC2)CCCCC1)c1ccc(Cl)cc1 | inactive: -23.9%
4 | CC(C)(C)n1nnnc1C(c1ccccc1)N1CCC(n2c(=O)[nH]c3ccccc32)CC1 (centres undefined) | inactive: -35%
5 | O=C1CCN(Cc2ccccc2)CC1 | inactive: -3.21%
6 | CCOC(=O)N1CCC(Nc2ccc(OC)cc2)CC1 | inactive: -20.1%
7 | O=C(OC1CN2CCC1CC2)C1c2ccccc2Oc2ccccc21 (centres undefined) | inactive: -19.6%
8 | O=C(NCC1(N2CCCCC2)CCCCC1)c1ccc(Cl)s1 | inactive: -38.7%
9 | N#CC1(Nc2ccccc2)CCN(Cc2ccccc2)CC1 | inactive: -14.1%
10 | O=C1C(O)=C([N+](=O)[O-])C(=O)C(O)=C1[N+](=O)[O-] | inactive: -9.61%
11 | O=C(NCC1(N2CCOCC2)CCCCC1)c1cc2ccccc2o1 | inactive: -22.4%
12 | O=C(NCC1(N2CCCCC2)CCCCC1)c1ccc(Cl)nc1 | inactive: 5.03%
13 | Cc1cc(C)cc(N(C(=O)c2ccccc2)C2CCN(C(=O)OC(C)(C)C)CC2)c1 | inactive: -21.3%
14 | CSc1ccccc1C(=O)NCC1(N2CCCCC2)CCCCC1 | inactive: -23.4%
15 | CCOC(=O)N1CCC(=O)CC1 | inactive: -8.83%
16 | Cc1cccc(NC2(C#N)CCN(Cc3ccccc3)CC2)c1 | inactive: -32%
17 | O=C(NCC1(N2CCCCC2)CCCCC1)c1ccc(=O)[nH]c1 | inactive: -11.4%
18 | O=C(NCC1(N2CCCCC2)CCCCC1)c1cccs1 | inactive: -24.9%
19 | COc1ccc(C(=O)NCC2(N3CCCCC3)CCCCC2)cc1 | inactive: -24.8%
20 | CCC(c1nnnn1C1CCCC1)N1CCC(n2c(=O)[nH]c3ccccc32)CC1 (centres undefined) | inactive: -30%

Row | Compound | activity change, negative = cytotoxicity
21 | CC(C)(C)OC(=O)N1CCC(N(C(=O)c2ccccc2)c2ccc(F)cc2)CC1 | inactive: -29.1%
22 | COc1ccc(C(=O)NCC2(N3CCCCC3)CCCCC2)c(OC)c1OC | inactive: 6.62%
23 | CN1CCC(Nc2ccc(Cl)cc2)CC1 | inactive: -23.3%
24 | CCC(CO)(C(=O)OC1CN2CCC1CC2)c1ccccc1 (centres undefined) | inactive: 9.74%
25 | COc1cc(OC)cc(C(=O)NCC2(N3CCOCC3)CCCCC2)c1 | inactive: -10.1%
26 | COc1cc(C(=O)NCC2(N3CCOCC3)CCCCC2)cc(OC)c1OC | inactive: -32.2%
27 | CCCOc1ccc(C(=O)NCC2(N(C)C)CCCCC2)cc1 | inactive: -36.8%
28 | CC(C)(C)OC(=O)N1CCC(Nc2ccccc2)CC1 | inactive: 6.56%
29 | O=C(O)C1(Nc2ccccc2)CCN(Cc2ccccc2)CC1 | inactive: -25.5%
30 | CCOc1ncccc1C(=O)NCC1(N2CCOCC2)CCCCC1 | inactive: -20.5%
31 | CN1CCC(Nc2ccc(F)c(Cl)c2)CC1 | inactive: -12.5%
32 | CC(C)(C)c1ccc(C(=O)NCC2(N3CCOCC3)CCCCC2)cc1 | inactive: -2.82%
33 | O=C(NCC1(N2CCCCC2)CCCCC1)c1ccco1 | inactive: -27.7%
34 | CN(C)c1ccc(C(=O)NCC2(N3CCCCC3)CCCCC2)cc1 | inactive: -1.15%
35 | Cc1ccccc1C(=O)NCC1(N(C)C)CCCCC1 | inactive: -14%
36 | Cc1ccccc1NC1(C#N)CCN(Cc2ccccc2)CC1 | inactive: -51.5%
37 | CC(C)(C)n1nnnc1C(c1ccnc2ccccc12)N1CCC(n2c(=O)[nH]c3ccccc32)CC1 (centres undefined) | inactive: -37.9%
38 | CCN1CCC(Nc2cccc(F)c2)CC1 | inactive: -24.1%
39 | COc1ccc(C(c2nnnn2C2CCCCC2)N2CCC(n3c(=O)[nH]c4ccccc43)CC2)cc1 (centres undefined) | inactive: -35.9%
40 | Cc1ccc(NC2(C#N)CCN(Cc3ccccc3)CC2)cc1 | inactive: -19.5%

Row | Compound | activity change, negative = cytotoxicity
41 | Cc1ccc(C(=O)NCC2(N3CCCCC3)CCCCC2)o1 | inactive: -26.7%
42 | Fc1ccccc1NC1CCN(Cc2ccccc2)CC1 | inactive: -5.55%
43 | COc1cc(OC)cc(C(=O)NCC2(N3CCCCC3)CCCCC2)c1 | inactive: 17.5%
44 | CN(C)C1(CNC(=O)c2ccc(C(C)(C)C)cc2)CCCCC1 | inactive: -37.2%
45 | c1ccc(CN2CCC(Nc3ccccc3)CC2)cc1 | inactive: -20.9%
46 | O=C(NCC1(N2CCOCC2)CCCCC1)c1ccccc1 | inactive: -12%
47 | CN(C)C1(CNC(=O)c2cccc(C#N)c2)CCCCC1 | inactive: 11.4%
48 | CC(C)(C)OC(=O)N1CCC(N(C(=O)c2ccccc2)c2ccc(Cl)cc2)CC1 | inactive: -18.9%
49 | O=C(NCC1(N2CCOCC2)CCCCC1)c1ccc([N+](=O)[O-])cc1 | inactive: -34.2%
50 | N#Cc1ccc(C(=O)NCC2(N3CCCCC3)CCCCC2)cc1 | inactive: 10.9%
51 | O=C(NCC1(N2CCOCC2)CCCCC1)c1ccccc1[N+](=O)[O-] | inactive: -7%
52 | O=C(OC1CN2CCC1CC2)C1c2ccccc2C=Cc2ccccc21 (centres undefined) | inactive: -23.1%
53 | CCc1cc(C(=O)NCC2(N3CCCCC3)CCCCC2)sc1C | inactive: -35.9%
54 | N/C(=N\O)c1c(N)no[n+]1[O-] | inactive: -26.8%
55 | CCOC(=O)N1CCC(Nc2ccc(C)cc2)CC1 | inactive: -18%
56 | COc1ccc(C(=O)NCC2(N3CCOCC3)CCCCC2)cc1OC | inactive: -24.6%
57 | CCC(=O)N(c1ccccc1)C1CCNCC1 | inactive: -0.0187%
58 | O=C(NCC1(N2CCOCC2)CCCCC1)c1cc(Br)ccc1Cl | inactive: -16.1%
59 | COc1cc(C(=O)NCC2(N3CCOCC3)CCCCC2)cc(OC)c1C | inactive: -53.6%
